Results: patent US8412459B2, “Method for determining the allergic potential of a compound” (Vlaamse Instelling Voor Technologisch Onderzoek (VITO), priority 2006, dated 2013)

Legend:
[1] = a priori known, from literature / in vivo tests; cited from earlier work
CD34-DCs = assay: Microarray gene expression in CD34-DCs; classification by LFC of gene 1 (SEQ ID NO 1, PBEF1) after 12 hours exposure; conditions: Ni and BC removed from the data base and used as test compounds

Nickel Chloride or Nickel Sulphate
known sensitizing classification / strength [1]: moderate sensitizer | ACD sensitizing potential predicted by the classification statement (LFC_12 averaged over a few individuals larger than zero) (CD34-DCs): has an ACD sensitizing potential
